Data on 1 molecule can be found in ChEMBL document CHEMBL1134951, “Substituted uracil derivatives as potent inhibitors of poly(ADP-ribose)polymerase-1 (PARP-1)” (Bioorg Med Chem Lett, 2002).

Sequences of proteins named here, by UniProt entry; tags and fusion partners are left off.
UniProt P09874, whole entry: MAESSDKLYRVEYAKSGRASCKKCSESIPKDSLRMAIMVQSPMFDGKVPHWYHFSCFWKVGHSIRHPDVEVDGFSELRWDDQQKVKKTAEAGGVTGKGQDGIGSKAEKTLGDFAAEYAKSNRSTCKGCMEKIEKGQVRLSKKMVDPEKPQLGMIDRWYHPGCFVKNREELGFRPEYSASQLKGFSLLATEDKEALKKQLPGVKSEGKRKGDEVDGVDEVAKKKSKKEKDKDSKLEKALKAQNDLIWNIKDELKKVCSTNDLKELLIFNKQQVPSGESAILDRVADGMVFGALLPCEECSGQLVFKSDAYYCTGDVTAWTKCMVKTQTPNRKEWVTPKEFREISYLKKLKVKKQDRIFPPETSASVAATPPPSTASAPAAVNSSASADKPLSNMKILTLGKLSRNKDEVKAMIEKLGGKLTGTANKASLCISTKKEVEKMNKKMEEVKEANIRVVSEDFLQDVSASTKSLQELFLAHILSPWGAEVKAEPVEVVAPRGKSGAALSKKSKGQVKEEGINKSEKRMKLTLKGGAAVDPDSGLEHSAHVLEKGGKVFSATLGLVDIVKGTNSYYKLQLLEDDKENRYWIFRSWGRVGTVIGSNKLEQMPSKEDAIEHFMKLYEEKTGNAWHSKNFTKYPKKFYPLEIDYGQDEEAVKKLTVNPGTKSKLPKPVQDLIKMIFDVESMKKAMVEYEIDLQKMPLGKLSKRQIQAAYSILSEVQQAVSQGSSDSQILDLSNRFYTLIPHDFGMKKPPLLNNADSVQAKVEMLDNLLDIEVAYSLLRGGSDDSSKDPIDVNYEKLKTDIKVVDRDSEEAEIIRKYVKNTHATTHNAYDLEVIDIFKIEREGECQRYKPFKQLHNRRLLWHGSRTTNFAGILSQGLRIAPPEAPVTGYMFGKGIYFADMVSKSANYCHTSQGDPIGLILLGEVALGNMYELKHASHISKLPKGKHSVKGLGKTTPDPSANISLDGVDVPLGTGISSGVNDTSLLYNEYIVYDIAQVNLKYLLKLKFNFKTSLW

In this experiment the target is Poly [ADP-ribose] polymerase 1 (Homo sapiens, UniProt P09874). The experiment is described as follows: Inhibitory activity against human recombinant PARP-1.

For `O=C(CCn1c2c(c(=O)[nH]c1=O)CCCC2)NCC(=O)c1ccc2ccccc2c1`, the IC50 came to 0.025 µM.
